The record followed here is BindingDB's records for doi:10.1016/j.bmcl.2009.07.032 (Amgen, 2009).

This assay is described as follows: Antagonist activity against human CXCR3 expressed in human PBMC assessed as inhibition of cell migration in response to ITAC in plasma.

What is called IC50 is the point on the concentration scale where inhibition reaches its midpoint. As for `CCOc1ccc(-n2c([C@@H](C)N(Cc3cccnc3)C(=O)Cc3ccc(OC(F)(F)F)cc3)nc3ncccc3c2=O)cc1` [(-)-(R)-N-(1-(3-(4-ethoxyphenyl)-4-oxo-3,4-dihydropyrido[2,3-d]pyrimidin-2-yl)ethyl)-N-(pyridin-3-ylmethyl)-2-(4-(trifluoromethoxy)phenyl)acetamide], the IC50 came out at 240 nM.
